# Data from paper PMC6817905, “Inhibition of translation termination by small molecules targeting ribosomal release factors” (Scientific Reports, 2019).
# By UniProt entry, the sequences of proteins in these tests, tags left out. Where a name states a change or a piece, a line headed by the entry shows the natural chain unless it says otherwise.
# UniProt P0A7I0, whole entry: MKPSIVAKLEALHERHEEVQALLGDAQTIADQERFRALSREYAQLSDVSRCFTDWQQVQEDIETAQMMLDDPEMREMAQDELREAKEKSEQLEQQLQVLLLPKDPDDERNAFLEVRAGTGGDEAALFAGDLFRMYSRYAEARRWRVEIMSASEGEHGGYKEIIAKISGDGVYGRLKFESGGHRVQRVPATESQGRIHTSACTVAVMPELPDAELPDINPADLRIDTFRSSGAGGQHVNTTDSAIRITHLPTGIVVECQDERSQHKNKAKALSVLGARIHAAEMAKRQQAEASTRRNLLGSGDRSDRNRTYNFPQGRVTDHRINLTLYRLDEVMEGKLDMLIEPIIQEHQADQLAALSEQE
# UniProt P07012, whole entry: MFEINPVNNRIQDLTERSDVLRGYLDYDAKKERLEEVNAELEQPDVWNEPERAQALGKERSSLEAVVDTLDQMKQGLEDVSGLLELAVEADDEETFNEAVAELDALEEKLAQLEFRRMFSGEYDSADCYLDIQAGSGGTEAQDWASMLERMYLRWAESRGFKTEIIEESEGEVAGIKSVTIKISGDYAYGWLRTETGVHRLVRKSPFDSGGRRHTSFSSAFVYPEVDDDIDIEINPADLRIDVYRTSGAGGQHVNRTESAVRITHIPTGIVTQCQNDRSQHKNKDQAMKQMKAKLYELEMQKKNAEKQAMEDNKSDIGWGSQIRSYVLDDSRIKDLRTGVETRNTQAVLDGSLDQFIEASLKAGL
# Marks after values point to notes of the source that are not given here.
# Tests used:
# [1] = tested on: E. coli ΔtolC mutant (strain MG1655); assay: MIC, efflux-defective E. coli ΔtolC mutant; assay type: cell-based, Escherichia coli; conditions: broth micro-dilution
# Method: (§1) The four different strains analyzed were wild type (wt) Staphylococcus aureus (strain ATCC 29213), wt Escherichia coli (strain MG1655, K12), a drug-hypersensitive E. coli lpxC mutant D22 (strain MG1655) and an efflux-defective E. coli ΔtolC mutant (strain MG1655). These were grown in cation-adjusted Mueller Hinton II media (MH II, Nordic Biolabs), the standard medium for antibiotic susceptibility testing. For overnight cell cultures one colony from a MH II (Nordic Biolabs) plate was inoculated in 1 ml MH II media in a 10 ml tube and the bacteria was incubated at 37 °C shaking at 190 rpm. Cells from the overnight culture was used for MIC determinations and time-kill experiments.
# (§2) The minimal inhibitory concentrations (MIC) of the drugs were measured in 96-well round-bottom microtiter plates using cation-adjusted Mueller-Hinton II (MH II) media. All measurements were done with at least three biological replicates. Briefly, bacterial colonies from a non-selective agar plate were re-suspended in 0.9% NaCl to 0.5 McFarland ( ≅1.5×10^8 cfu/ml). The cell suspension was further diluted to ≅5×10^5 cfu/ml (50 µl of bacterial suspension to 10 ml of MHII) and then 90 µl of cell suspension ( ≅5×10^5 […]) was added to each well. […] The MIC value was determined visually as the lowest concentration of drug that inhibited growth.
# RF1 from E. coli = RF1 from E. coli (Escherichia coli, UniProt P0A7I0)
# [2] = tested on: E. coli lpxC mutant D22 (strain MG1655); assay: MIC, drug-hypersensitive E. coli lpxC mutant; assay type: cell-based, Escherichia coli; conditions: broth micro-dilution
# Method: as §1, §2
# [3] = tested on: ΔtolC efflux-defective E. coli; assay: Time-kill assay, E. coli ΔtolC; assay type: cell-based, Escherichia coli; conditions: tolC-defective E. coli; 1x or 2x MIC; cell number decreased during first four hours, regrowth after about eight hours
# Method: To determine if the compounds are bacteriostatic or bactericidal, time-kill assays were performed with wt S. aureus and a ΔtolC efflux-defective E. coli. The initial inoculums were diluted from triplicate biological replicates of overnight cell cultures inoculated with one colony in 1 ml MH II medium. The cell inoculum was diluted 1:1000 in 1 ml MH II medium and the cell culture was allowed to recover for 30 minutes before the compounds were added at a final concentration of 1x MIC (250 mg l^−1 for compound 115 and 125 mg l^−1 for compound 161 for both bacterial strains) or 2x MIC. As a control of the possible effect of DMSO on cell growth, the positive growth controls (three biological replicates) contained the same DMSO concentration as the cells with compound added (2x MIC). Samples (20 µl) were withdrawn before the compound was added and also after 1, 2, 4, 8 and 24 h after addition. The cells were diluted in 0.9% NaCl before they were plated on non-selective agar plates using glass beads. Colonies were counted after approximately 20 h.
# RF2 = RF2 (Escherichia coli, UniProt P07012)
# E. coli 70S ribosome = assay: Di- and tripeptide formation assay (peptide bond formation and translocation); conditions: for Apparent rate constant ka, tripeptide bond formation: fMet-Leu-Leu; for Apparent rate constant ka, tripeptide bond formation / Apparent rate constant ka, dipeptide bond formation: 0.5 mM compound, 2% DMSO, quench flow; for Apparent rate constant ka, dipeptide bond formation: fMet-Leu; for Inhibition of dipeptide or tripeptide formation: highest concentration 500 μM, 37 °C
# Method: Ribosomal activity for peptide bond formation and translocation was tested by di- and tripeptide formation assays. For that, an initiation complex and an elongation mix were first prepared in HEPES-Polymix buffer (pH 7.5). The initiation complex contained E. coli 70S ribosome (1 μM), IF1, IF2 and IF3 (all 2 μM), XR7 mRNA encoding Met-Leu-Leu (10 μM) with sequence UAAGGAG[…] and 1 μM [^3H]-fMet-tRNA^fMet. The elongation mix was prepared by mixing 10 μM EF-Tu, 10 μM EF-Ts, 10 μM EF-G, 10 μM tRNA^Leu, 0.5 mM Leu amino acid and 1 unit of Leu-tRNA synthetase. All reactions contained 1 mM GTP and ATP, 10 mM phosphoenol pyruvate, 50 mg/ml pyruvate kinase and 2 mg/ml myokinase. To test the effects, 0.5 mM of the anti-RF2 compounds 115 and 161 was added to both IC and EC together with DMSO as control. Both the mixes were incubated separately at 37 °C for 15 min. The reaction was started by mixing equal volumes of the IC and EC at 37 °C in a quench flow apparatus and was quenched by mixing 17% formic acid after different time points. The peptides were isolated from the ribosome by KOH treatment and applied to reverse phase HPLC separation with in-line radioactivity detection as described earlier.
# [4] = tested on: Escherichia coli strain MG1655; assay: MIC on bacterial growth, wt E. coli (broth micro-dilution); assay type: cell-based; conditions: initial screen, > = compound precipitated at higher concentrations in cell culture media
# Method: as §1, §2
# E. coli RF2 = E. coli RF2 (Escherichia coli, UniProt P07012); conditions: pH 6.5
SMILES,MIC E. coli ΔtolC [1],Kd (RF1 from E. coli),MIC E. coli lpxC [2],"Bacteriostatic or bactericidal, time-kill [3]",IC50 (RF2),Ki (RF2),"Apparent rate constant ka, tripeptide bond formation (E. coli 70S ribosome)","Apparent rate constant ka, dipeptide bond formation (E. coli 70S ribosome)",Inhibition of dipeptide or tripeptide formation (E. coli 70S ribosome),MIC E. coli [4],Kd (E. coli RF2)
CC1CCN(Cc2csc(NC(=O)CNC(=O)c3ccc(Cl)c(Cl)c3)n2)CC1,250 µg/mL,96.5 µM,64 µg/mL,bactericidal,47.5 µM,3.3 µM,about 4 s^−1,about 14 s^−1,no inhibition,>500^a mg l^−1,4.2 µM
CC1CC(C)CN(Cc2csc(NC(=O)CNC(=O)c3ccc(C(C)(C)C)cc3)n2)C1 (stereo not shown),125 µg/mL,44.6 µM,125 µg/mL,bactericidal,180 µM,12 µM,about 4 s^−1,about 14 s^−1,no inhibition,>500^a mg l^−1,37 µM
